Values of other authors as cited in patent US12582644B2, “O-GlcNAc transferase inhibitors and uses thereof” (President and Fellows of Harvard College, priority 2018, dated 2026).

Biological target: T1, OGT (Homo sapiens, UniProt O15294)
T1 sequence (O15294 1-1046): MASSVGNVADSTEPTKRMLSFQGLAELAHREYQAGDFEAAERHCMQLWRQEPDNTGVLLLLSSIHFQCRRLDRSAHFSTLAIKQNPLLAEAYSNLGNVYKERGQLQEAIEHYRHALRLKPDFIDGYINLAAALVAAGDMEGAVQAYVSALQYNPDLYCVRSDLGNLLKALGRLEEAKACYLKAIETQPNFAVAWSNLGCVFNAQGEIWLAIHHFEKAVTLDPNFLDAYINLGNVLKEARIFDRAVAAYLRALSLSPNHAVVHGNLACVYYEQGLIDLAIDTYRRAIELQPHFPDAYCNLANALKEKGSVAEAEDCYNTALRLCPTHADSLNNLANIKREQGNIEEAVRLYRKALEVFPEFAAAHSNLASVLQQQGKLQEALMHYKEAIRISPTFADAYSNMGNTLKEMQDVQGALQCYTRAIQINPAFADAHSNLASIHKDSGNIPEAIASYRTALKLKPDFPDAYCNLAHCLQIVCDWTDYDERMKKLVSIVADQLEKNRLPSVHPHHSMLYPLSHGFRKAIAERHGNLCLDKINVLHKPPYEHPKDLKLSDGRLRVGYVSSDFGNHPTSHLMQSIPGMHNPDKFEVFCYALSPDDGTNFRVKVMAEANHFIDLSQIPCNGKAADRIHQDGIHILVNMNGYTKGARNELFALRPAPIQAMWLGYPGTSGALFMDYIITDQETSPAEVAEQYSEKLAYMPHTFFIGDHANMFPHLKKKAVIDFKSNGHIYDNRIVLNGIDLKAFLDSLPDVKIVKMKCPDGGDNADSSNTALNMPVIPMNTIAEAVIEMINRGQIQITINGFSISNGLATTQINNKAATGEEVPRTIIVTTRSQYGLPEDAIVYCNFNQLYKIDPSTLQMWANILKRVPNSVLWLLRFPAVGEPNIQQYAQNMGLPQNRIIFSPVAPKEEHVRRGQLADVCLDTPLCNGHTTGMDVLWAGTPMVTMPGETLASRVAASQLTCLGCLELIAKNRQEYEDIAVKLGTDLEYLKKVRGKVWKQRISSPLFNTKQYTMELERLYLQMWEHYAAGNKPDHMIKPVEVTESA
Details: SPR, value in parentheses; read-out: Binding affinity (Kd ± s.d.) determined by SPR; cited from earlier work

## O=c1ccn([C@@H]2O[C@H](COP(=O)(O)OP(=O)(O)O)[C@@H](O)[C@H]2O)c(=O)[nH]1 [UDP, reference compound]
  Kd: 540 nM
